Data on one compound can be found in patent publication US20090149496A1, “INHIBITORS OF THE TASK-1 AND TASK-3 ION CHANNEL” (SANOFI-AVENTIS DEUTSCHLAND GMBH, priority 2006, published 2009).

Amino acid sequences for entries named in this document (tags omitted). A change or cut given only in a name is not applied to a line headed by its entry.
UniProt O35111: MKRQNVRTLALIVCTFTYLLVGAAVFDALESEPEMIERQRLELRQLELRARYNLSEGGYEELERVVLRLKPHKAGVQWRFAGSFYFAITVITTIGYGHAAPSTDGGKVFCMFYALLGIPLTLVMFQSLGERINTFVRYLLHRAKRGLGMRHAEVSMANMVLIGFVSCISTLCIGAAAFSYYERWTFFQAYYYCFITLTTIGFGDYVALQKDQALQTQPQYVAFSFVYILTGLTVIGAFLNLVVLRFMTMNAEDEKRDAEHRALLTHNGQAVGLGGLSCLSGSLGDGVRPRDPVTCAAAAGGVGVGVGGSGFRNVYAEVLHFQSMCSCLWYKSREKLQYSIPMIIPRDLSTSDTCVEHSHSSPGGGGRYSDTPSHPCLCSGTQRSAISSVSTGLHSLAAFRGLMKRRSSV

One may read the pIC50 as the negative decadic logarithm of the IC50, by convention in mol/L.

This test deals with T1, TASK1 (mouse) (Mus musculus, UniProt O35111).
T1 construct: expressed in transfected cells; host or cells: Xenopus laevis oocytes injected with in vitro synthesized RNA
The test can be described thus: Activity on the TASK-1 channel in Xenopus oocytes (two-microelectrode voltage clamp), mouse channel. The test is classed as cell-based. The procedure: A) Determination of the Activity on the TASK-1 Channel in Xenopus Oocytes
Mouse or human TASK-1 channels were expressed in Xenopus oocytes. For this purpose, oocytes were first isolated from Xenopus levis and defolliculated. Subsequently, TASK-1-encoding RNA synthesized in vitro was injected into these oocytes. After two days of TASK-1 protein expression, TASK-1 currents were measured on the oocytes with the two-microelectrode voltage clamp technique. In this measurement, the TASK-1 channels were generally activated with voltage jumps lasting 250 ms to 40 mV. The bath was flushed with a solution of the following composition: NaCl 96 mM, KCl 2 mM, CaCl2 1.8 mM, MgCl2 1 mM, HEPES 5 mM (titrated to pH 7.4 with NaOH). These experiments were performed at room temperature. For data acquisition and analysis, the following were used: Geneclamp amplifier (Axon Instruments, Foster City, USA) and MacLab D/A converter and software (ADinstruments, Castle Hill, Australia). The inventive substances were tested by adding them to the bath solution in different concentrations. The effects of the substances were calculated as the percentage inhibition of the TASK-1 control current which was obtained when no substance was added to the solution. The data was subsequently fitted to the Hill equation in order to determine the half-maximum inhibitory concentrations (IC50 values) for the particular substances.

Structures are written as SMILES. pIC50: −log10 of the molar value. Where a name gives a salt, the structure may show the parent alone.

With `CC[C@H](NC(=O)c1cc(F)ccc1NS(=O)(=O)c1cccc2cccnc12)c1ccccc1` [Example 3, (S)-5-Fluoro-2-(quinoline-8-sulfonylamino)-N-(1-phenylpropyl)benzamide sodium salt], the pIC50 was 6.09.
